From US20250368625A1, “PIPERAZINES” (Grünenthal GmbH, priority 2024, published 2025)

Amino acid sequences for entries named in this document (tags omitted).
UniProt P31391, whole entry: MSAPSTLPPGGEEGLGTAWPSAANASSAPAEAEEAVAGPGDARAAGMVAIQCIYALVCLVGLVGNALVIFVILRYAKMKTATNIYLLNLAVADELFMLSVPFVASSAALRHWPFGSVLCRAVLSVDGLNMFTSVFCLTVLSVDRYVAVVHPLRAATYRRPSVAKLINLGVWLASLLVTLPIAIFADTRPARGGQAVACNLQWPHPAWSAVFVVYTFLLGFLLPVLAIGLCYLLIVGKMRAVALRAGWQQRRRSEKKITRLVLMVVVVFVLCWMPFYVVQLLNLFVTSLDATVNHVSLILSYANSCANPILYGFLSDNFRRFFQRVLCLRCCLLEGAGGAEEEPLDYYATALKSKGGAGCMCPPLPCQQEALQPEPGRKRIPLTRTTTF

Molecular target: human SSTR4 (Homo sapiens, UniProt P31391)
Assay: hSSTR4 cAMP assay (cAMP accumulation, LANCE Ultra cAMP kit, CHO-K1 human SSTR4 Gi cell line)
Assay type: cell-based
Conditions: read-out: hSSTR4 EC50 nM (Comparative Example); morpholinyl matched molecular pairs (from WO 2016 075240); same cAMP assay conditions

EC50 [nM] | Compound
15 | Cc1cccc2c(C(C)(C)NC(=O)C3CNCCO3)nn(C)c12 (centres unmarked)
107 | COc1cccn2c(C(C)(C)NC(=O)C3CNCCO3)ncc12 (centres unmarked)
12 | Cc1cccn2c(C(C)(C)NC(=O)C3CNCCO3)ncc12 (centres unmarked)
1.3 | Cc1cccc2c(C(C)(C)NC(=O)C3CNCCO3)n[nH]c12 (centres unmarked)
34 | CC(C)(NC(=O)C1CNCCO1)c1n[nH]c2c(F)cccc12 (centres unmarked)
